{"source": "patent US12390473B2", "about": "“Methods of treating tyrosine kinase inhibitor-induced diarrhea” (THE REGENTS OF THE UNIVERSITY OF CALIFORNIA, priority 2019, dated 2025)", "target": "Ca2+-activated K+ channels (Homo sapiens, UniProt O15554)", "experiment": "Inhibition of thapsigargin-induced short-circuit current in T84 cells (FIG. 11A)", "format": "cell-based", "settings": "2 μM thapsigargin after 25 min 20 μM afatinib"}
{"smiles": "NC(=O)C(c1ccccc1)(c1ccc(F)cc1)c1ccc(F)cc1", "note": "[senicapoc]", "values": [{"measurement": "IC50 for inhibition of Ca2+-dependent basolateral K+ conductance", "result": "low micromolar"}]}
